# Antibody variant affinities, Ab-14 heavy chain, assay B

Target peptide (SARS-CoV-2 spike, HR2 region): PDVDLGDISGINAS

Each scFv is VH, a 15-residue (Gly4Ser)3 linker, VL, as in the parent Ab-14, and differs from it in the CDRs of the heavy chain only.
VH: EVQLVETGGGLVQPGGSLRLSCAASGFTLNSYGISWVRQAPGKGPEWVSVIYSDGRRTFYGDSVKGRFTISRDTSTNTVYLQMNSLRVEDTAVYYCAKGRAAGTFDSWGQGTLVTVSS
VL: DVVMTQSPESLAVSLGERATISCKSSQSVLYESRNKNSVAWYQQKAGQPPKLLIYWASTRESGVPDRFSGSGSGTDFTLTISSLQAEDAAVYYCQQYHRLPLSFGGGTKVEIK

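The starting antibody came from a phage panning campaign against this peptide. Designed CDR sequences, proposed from the first random library and measured here. Their group label is 14H_GP_Gibbs (GP: Gaussian process model; Gibbs: Gibbs sampling; a sequence that several methods proposed may carry one label only). Affinity was read by AlphaSeq, a pooled yeast mating assay with surface-displayed partners. After mating in shaken culture at 30 °C for 16 h, diploids were selected and their barcode pairs sequenced. The ratio of observed to expected reads was calibrated, replicate by replicate, on BCL2-family standards whose Kd was known from biolayer interferometry. The assay was run in six technical replicates.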

Substitutions are numbered in sequence along the VH above, starting at 1 (not Kabat).
The read-out is the apparent dissociation constant on a log10 scale (nM): the lower, the stronger.
An entry "ND" has no value in the source: the pair was not observed among the diploids in that replicate. This suggests poor binding but is not conclusive.
Values of this round are not directly comparable with the first-round values of the same sequences.
The authors' rule: three or more of the six replicates give a measured affinity, fewer mean a poor binder.
Nonspecific signal, from three strains lacking the peptide, appeared in 1% of pairings of all heavy chain designs, centred on 2.08 (5% of these signals below 0.84); values are not corrected for it. For each scFv, signals with the empty controls are counted beside the result, with their mean in brackets.

changes,"log10 Kd, replicates",control signals
G26K T28S S31N A101Q,ND / 1.82 / ND / 1.82 / ND / 1.56,0 of 18
T28S R100H A101I,0.50 / 0.63 / 0.13 / 0.27 / 0.43 / 0.24,2 of 18 (3.69)
G26K T28Y S31D A101T,ND / ND / ND / ND / ND / ND,0 of 18
G26K T28Q S53A R100E,0.98 / 0.94 / 1.32 / 1.84 / 1.63 / 2.20,0 of 18
T28E S63N R100M A101N,0.99 / 0.60 / 0.63 / 0.74 / 0.62 / 0.72,1 of 18 (2.43)
N30E S53A S63A A101T,0.24 / 0.02 / 0.62 / -0.24 / -0.06 / 0.64,0 of 18
T28S A101S S107Q,2.60 / ND / ND / 3.02 / ND / ND,1 of 18 (1.61)
T28H R56K A101Q,ND / ND / ND / ND / ND / ND,0 of 18
N30E G61A S63D R100S,0.59 / 1.45 / 0.32 / -0.39 / 0.72 / ND,0 of 18
T28E G61D R100E,0.84 / 0.81 / 0.41 / 0.72 / 0.68 / 0.94,0 of 18
T28S G61L R100K,ND / ND / ND / ND / ND / ND,0 of 18
F27E T28S S31E A101N,ND / ND / ND / ND / ND / ND,0 of 18
T28S S63P R100N S107T,0.51 / 0.34 / -0.08 / -0.44 / -0.04 / 0.66,0 of 18
T28E G61V A101N S107T,ND / 1.40 / -0.13 / 0.44 / 2.21 / ND,0 of 18
T28N F59M G61D A101Q,ND / ND / ND / 0.36 / 1.78 / 0.26,1 of 18 (0.31)
T28D S31T G61A R100Q A101T,1.50 / 1.04 / 0.78 / 0.96 / 0.87 / 0.81,2 of 18 (2.24)
T28N G61K A101T S107Q,0.68 / 0.89 / 1.63 / 0.94 / 0.67 / 1.19,0 of 18
R56K G61S S63D R100Q S107L,0.21 / 0.16 / 0.41 / -0.38 / -0.39 / -0.09,0 of 18
T28D G61D R100Q A101E,ND / ND / ND / ND / ND / ND,0 of 18
T28E G61Q R100E A101V,ND / 0.34 / -0.21 / 0.72 / 0.09 / 0.68,0 of 18
T28E R100V A101K S107T,0.91 / 0.88 / 0.95 / 0.82 / 1.15 / 1.13,0 of 18
T28H R100Q A101T S107R,1.63 / 1.23 / 2.17 / 2.36 / 3.41 / 2.99,2 of 18 (2.06)
R56C G61T R100N,ND / 2.11 / 1.53 / 1.62 / 2.92 / 1.88,2 of 18 (1.99)
N30E S53A S63R R100Q S107V,ND / ND / ND / ND / ND / ND,0 of 18

3 of these entries, quoted again:

changes,"log10 Kd, replicates",control signals
N30E S53A S63R R100Q S107V,ND / ND / ND / ND / ND / ND,0 of 18
T28S R100H A101I,0.50 / 0.63 / 0.13 / 0.27 / 0.43 / 0.24,2 of 18 (3.69)
T28H R100Q A101T S107R,1.63 / 1.23 / 2.17 / 2.36 / 3.41 / 2.99,2 of 18 (2.06)

Source: Li et al. 2023 (doi:10.1038/s41467-023-39022-2), MIT Lincoln Laboratory and A-Alpha Bio; data file from the FLAb repository.